Values of other authors, collected in PMC12580894 (Cancer Research Communications, 2025).

Tests used:
advanced solid tumors = conditions: human, in vivo; cited from earlier work
[1] = tested on: bladder and non–small cell lung cancer cell lines; conditions: cited from earlier work
[2] = tested on: advanced or metastatic gastrointestinal malignancies; conditions: in vivo; cited from earlier work

## C[C@@H]1COCCN1c1cc(-c2ccnn2C)c2ccnc(-c3ccn[nH]3)c2n1 [elimusertib]
Advanced solid tumors
  Objective response rates: modest
  tolerability of alternate schedule 3 days on and 11 days off: better tolerated
[1]
  combination effect with either cisplatin or carboplatin: synergistic effects
[2]
  efficacy with concomitant administration: without any appreciable improvement in efficacy
